Measurements: US12441726B2, “Compounds and uses thereof” (Foghorn Therapeutics Inc., priority 2020, dated 2025)

By UniProt entry, the sequences of proteins in these tests, tags left out.
UniProt P51532, whole entry: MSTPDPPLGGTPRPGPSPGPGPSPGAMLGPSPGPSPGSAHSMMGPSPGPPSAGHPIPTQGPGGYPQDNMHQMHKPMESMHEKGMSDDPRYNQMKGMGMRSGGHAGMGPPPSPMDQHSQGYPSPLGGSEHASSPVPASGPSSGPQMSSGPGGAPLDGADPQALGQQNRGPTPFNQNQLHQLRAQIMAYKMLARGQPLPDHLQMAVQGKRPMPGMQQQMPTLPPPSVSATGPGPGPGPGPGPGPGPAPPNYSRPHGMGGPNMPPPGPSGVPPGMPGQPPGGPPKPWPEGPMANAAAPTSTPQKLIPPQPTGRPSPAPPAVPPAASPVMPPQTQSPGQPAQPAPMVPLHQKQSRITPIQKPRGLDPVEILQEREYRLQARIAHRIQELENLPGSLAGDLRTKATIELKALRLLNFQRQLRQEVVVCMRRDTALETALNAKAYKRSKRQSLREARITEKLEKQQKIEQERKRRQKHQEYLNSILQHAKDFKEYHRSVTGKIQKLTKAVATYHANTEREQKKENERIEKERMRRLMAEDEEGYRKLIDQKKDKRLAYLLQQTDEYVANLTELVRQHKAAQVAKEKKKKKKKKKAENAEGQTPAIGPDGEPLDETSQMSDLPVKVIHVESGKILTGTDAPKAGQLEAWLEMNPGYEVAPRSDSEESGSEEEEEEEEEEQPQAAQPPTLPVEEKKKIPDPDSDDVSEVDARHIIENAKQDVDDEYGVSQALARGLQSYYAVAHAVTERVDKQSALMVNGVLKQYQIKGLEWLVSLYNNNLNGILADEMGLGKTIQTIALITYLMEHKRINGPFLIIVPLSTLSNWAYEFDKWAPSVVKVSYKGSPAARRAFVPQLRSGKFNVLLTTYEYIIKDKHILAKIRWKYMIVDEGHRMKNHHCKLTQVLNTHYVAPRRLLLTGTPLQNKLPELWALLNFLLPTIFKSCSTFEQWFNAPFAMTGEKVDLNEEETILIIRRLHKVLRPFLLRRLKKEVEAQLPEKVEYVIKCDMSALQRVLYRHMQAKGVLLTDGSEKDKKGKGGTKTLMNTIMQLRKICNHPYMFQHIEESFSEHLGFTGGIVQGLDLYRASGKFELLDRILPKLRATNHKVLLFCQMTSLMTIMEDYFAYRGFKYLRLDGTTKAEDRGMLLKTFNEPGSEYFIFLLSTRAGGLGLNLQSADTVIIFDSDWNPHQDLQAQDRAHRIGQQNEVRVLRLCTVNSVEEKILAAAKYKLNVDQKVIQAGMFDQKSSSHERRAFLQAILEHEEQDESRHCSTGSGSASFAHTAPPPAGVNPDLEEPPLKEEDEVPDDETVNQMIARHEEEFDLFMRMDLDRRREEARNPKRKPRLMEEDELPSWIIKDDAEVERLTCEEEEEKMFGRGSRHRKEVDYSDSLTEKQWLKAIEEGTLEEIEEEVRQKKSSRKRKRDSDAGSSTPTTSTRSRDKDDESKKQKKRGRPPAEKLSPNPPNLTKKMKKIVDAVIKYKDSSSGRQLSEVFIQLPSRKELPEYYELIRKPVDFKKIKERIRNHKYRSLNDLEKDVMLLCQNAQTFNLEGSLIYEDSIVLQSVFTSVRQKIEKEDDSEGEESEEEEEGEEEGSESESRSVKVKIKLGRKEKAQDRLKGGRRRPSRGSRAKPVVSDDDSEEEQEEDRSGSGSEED
UniProt P51531, whole entry: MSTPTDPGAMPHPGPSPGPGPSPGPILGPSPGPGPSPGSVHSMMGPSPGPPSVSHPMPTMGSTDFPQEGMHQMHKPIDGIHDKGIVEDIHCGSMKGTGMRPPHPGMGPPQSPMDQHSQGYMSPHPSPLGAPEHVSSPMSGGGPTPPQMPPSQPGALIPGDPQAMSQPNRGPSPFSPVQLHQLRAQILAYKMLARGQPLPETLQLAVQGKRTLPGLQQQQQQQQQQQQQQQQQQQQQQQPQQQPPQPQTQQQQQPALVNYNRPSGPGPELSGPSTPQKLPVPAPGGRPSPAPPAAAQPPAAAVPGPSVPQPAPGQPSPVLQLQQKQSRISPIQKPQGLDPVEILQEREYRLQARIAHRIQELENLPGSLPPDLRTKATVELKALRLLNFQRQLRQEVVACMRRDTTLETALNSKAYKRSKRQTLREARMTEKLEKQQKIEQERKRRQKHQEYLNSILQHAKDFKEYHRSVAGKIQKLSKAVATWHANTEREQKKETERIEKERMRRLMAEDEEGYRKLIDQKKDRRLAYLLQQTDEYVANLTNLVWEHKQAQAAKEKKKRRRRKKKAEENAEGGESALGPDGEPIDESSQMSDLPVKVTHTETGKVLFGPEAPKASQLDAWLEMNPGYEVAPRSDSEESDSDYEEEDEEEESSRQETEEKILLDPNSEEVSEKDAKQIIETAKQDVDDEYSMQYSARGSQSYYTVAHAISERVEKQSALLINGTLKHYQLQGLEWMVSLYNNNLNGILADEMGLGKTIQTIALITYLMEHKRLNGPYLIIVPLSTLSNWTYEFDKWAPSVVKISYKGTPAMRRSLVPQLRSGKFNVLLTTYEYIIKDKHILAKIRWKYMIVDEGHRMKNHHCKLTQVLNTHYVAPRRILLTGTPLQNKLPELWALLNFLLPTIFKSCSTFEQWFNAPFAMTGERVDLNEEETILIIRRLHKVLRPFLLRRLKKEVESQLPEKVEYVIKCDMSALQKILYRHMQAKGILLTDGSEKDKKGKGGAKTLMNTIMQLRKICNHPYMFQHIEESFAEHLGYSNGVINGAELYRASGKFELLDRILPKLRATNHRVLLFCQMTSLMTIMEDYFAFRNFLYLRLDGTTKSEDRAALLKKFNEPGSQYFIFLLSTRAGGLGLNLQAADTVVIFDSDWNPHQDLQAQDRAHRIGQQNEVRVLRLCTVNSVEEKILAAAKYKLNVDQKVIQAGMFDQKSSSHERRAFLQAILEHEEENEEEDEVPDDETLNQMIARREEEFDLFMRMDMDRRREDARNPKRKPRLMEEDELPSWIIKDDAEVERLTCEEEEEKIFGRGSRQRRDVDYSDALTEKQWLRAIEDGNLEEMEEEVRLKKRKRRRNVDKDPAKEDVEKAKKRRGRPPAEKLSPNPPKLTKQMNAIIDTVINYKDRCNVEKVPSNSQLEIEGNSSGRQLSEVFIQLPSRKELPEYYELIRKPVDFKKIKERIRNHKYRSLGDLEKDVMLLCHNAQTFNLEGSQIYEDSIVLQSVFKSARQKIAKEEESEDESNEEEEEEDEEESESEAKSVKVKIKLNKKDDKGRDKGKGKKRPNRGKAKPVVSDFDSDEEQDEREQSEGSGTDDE

What was measured:
[1] = biological target: BRG-1 (Homo sapiens, UniProt P51532); experiment: ATPase catalytic activity assay (ADP-Glo), BRG-1
[2] = biological target: BRM (Homo sapiens, UniProt P51531); experiment: ATPase catalytic activity assay (ADP-Glo), BRM

C[C@@]1(C#N)COCc2ccc(C(=O)NCc3cc4nc(-c5cccc6c5cnn6CCO)ccc4cn3)cc21
BRG1 Max % Inhibition ([1]; 30 nM BRG-1, 400 μM ATP): 85%
IC50 ([1]; read-out: BRG1 ATPase: IC50, 30 nM BRG-1, 400 μM ATP): 500 to 1000 nM
BRM Max % Inhibition ([2]; 30 nM BRM, 400 μM ATP): 96%
IC50 ([2]; read-out: BRM ATPase: IC50, 30 nM BRM, 400 μM ATP): 100 to 500 nM
